Patent US8110398B2, “Stable cell lines and methods for evaluating gastrointestinal absorption of chemicals” (Absorption Systems Group, LLC, priority 2006, dated 2012)

Sequences of proteins named here, by UniProt entry; tags and fusion partners are left off.
UniProt P08183, whole entry: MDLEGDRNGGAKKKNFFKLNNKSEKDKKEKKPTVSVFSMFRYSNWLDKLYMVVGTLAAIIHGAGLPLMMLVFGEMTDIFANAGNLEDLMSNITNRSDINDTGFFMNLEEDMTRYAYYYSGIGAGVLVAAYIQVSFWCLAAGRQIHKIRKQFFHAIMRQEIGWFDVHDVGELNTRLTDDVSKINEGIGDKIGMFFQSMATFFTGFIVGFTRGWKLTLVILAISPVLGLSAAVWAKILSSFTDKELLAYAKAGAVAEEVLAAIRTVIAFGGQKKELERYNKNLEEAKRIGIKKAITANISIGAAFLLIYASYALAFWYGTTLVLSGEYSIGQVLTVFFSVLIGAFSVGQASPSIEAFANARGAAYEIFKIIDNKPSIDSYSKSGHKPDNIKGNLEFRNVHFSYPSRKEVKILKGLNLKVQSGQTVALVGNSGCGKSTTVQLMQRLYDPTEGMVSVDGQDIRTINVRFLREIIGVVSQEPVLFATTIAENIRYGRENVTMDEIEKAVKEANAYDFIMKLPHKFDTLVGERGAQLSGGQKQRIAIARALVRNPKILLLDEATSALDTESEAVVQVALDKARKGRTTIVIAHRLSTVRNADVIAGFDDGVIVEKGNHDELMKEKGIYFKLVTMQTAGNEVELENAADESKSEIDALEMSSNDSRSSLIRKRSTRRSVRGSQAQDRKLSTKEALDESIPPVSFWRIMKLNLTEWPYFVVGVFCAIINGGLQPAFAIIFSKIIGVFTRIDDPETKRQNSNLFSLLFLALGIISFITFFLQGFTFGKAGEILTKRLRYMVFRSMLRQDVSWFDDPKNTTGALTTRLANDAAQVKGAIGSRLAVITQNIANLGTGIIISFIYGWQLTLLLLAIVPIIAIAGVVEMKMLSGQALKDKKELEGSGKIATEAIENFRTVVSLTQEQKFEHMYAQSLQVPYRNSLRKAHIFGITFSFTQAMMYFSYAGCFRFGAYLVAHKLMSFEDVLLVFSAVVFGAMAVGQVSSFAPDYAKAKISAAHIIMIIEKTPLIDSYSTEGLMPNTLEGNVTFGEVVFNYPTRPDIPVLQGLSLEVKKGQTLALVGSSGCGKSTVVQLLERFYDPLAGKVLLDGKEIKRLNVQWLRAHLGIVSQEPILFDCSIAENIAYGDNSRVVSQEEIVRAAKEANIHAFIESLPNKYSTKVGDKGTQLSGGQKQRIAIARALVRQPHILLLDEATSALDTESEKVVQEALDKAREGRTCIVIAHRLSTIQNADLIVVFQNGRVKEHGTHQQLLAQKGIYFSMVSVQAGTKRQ

Columns and labels:
[1] = reference values; cited from earlier work
[2] = target: P-gp (Homo sapiens, UniProt P08183); details: from efflux ratios in clone #801 and parental C2BBe1 cells
[3] = system: C2BBE1 cells; details: reference values; cited from earlier work

| Substance | % Absorption in human [1] | P-gp Substrate? [2] | Papp in C2BBE1 cells [3] |
| --- | --- | --- | --- |
| 1-Deamino-8-D-arginine | 1% | – | – |
| Sulfasalazine | – | not a P-gp substrate and No | 0.13 10^−6 cm/s |
